Literature values in article PMC10866537.

Protein sequences, listed by entry. Tags and fused reporters are not part of them. Residues count along the entry.
UniProt P42081, 24-247: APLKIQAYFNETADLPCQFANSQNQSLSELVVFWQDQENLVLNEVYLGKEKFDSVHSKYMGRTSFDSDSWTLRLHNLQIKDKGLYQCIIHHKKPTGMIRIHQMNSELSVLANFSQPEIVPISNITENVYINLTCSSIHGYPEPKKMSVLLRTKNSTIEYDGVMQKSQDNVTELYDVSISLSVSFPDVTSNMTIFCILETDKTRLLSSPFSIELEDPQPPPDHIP

Experiments:
CD86 (Homo sapiens) = CD86 (Homo sapiens) (UniProt P42081); details: cited from earlier work
CD80 (Homo sapiens) = CD80 (Homo sapiens) (UniProt P33681); details: cited from earlier work

CTLA4 (from UniProt P16410)
Kd (CD86 (Homo sapiens)): 2.6 µM
Kd (CD80 (Homo sapiens)): 0.2 µM
